Key:
[1] = human, in vivo
[2] = tested on: human placental microsomes

ethylene-hydroxylated glyburide [M5]
excretion in urine [1]: excreted in small amounts in urine | amount of metabolite formed as percent of the total metabolites [2]: 92%

From article PMC3982398 (Biochemical pharmacology, 2009)
